Results from patent US20130261142A1, “COMPOUNDS USED FOR TREATING CANCER AND THE USE THEREOF” (priority 2010, published 2013).

Test system: MCF-7 SPS cells
Test: LOPAC compounds tested on MCF-7 SPS cells (Table 2)

SMILES: O=[N+]([O-])c1ccc(-c2nc(-c3ccc(F)cc3)c(-c3ccncc3)[nH]2)cc1 [PD 169316, 4-(4-Fluorophenyl)-2-(4-nitrophenyl)-5-(4-pyridyl)-1H-imidazole]
- Cancer cell survival (%): 8.8%
